Cyclic peptide permeability, from CycPeptMPDB

PAMPA measures passive passage through an artificial lipid membrane. P is given in units of 10^-6 cm/s (from log10 values with two decimals); larger means faster passage.

CC(C)C[C@@H]1C(=O)N[C@@H](Cc2ccccc2)C(=O)N2CCC[C@@H]2C(=O)N(C)[C@@H](C)C(=O)N[C@H](CC(C)C)C(=O)N(Cc2ccccc2)CC(=O)N2CCC[C@@H]2C(=O)N1C is reported with PAMPA 4.1 × 10^-6 cm/s. CC(C)C[C@H]1C(=O)N[C@@H](Cc2ccccc2)C(=O)N(C)[C@@H](C)C(=O)N(C)[C@@H](CC(C)C)C(=O)N[C@@H](Cc2ccccc2)CC(=O)N2CCC[C@@H]2C(=O)N1C is reported with PAMPA 6 × 10^-6 cm/s. For CC(C)C[C@@H]1NC(=O)[C@@H](CC(C)C)NC(=O)[C@@H](C)N(C)C(=O)[C@H](Cc2ccccc2)NC(=O)[C@H](CC(C)C)N(C)C(=O)[C@@H]2CCCN2C1=O the data give PAMPA 5.2 × 10^-6 cm/s. The entry for CC(C)C[C@@H]1NC(=O)[C@@H](C)N(C)C(=O)[C@H](Cc2ccccc2)NC(=O)[C@H](CC(C)C)NC(=O)[C@@H]2CCCN2C(=O)[C@@H](CC(C)C)NC1=O lists PAMPA 8.3 × 10^-6 cm/s. CC(C)C[C@@H]1NC(=O)[C@@H](CC(C)C)N(C)C(=O)C[C@H](Cc2ccccc2)NC(=O)[C@H](Cc2ccccc2)NC(=O)[C@@H](CC(C)C)N(C)C(=O)[C@H]2CCCN2C1=O has PAMPA 4.8 × 10^-6 cm/s. CCCN1CC(=O)N(Cc2ccccc2)CC(=O)N(C)[C@@H](CC(C)C)C(=O)N2CCC[C@@H]2C(=O)N(C)[C@H](CC(C)C)C(=O)N[C@@H](Cc2ccccc2)C(=O)N2CCC[C@H]2C1=O has PAMPA 4.6 × 10^-6 cm/s. The entry for CC(C)C[C@@H]1C(=O)N[C@@H](Cc2ccccc2)C(=O)N[C@@H](C)C(=O)N[C@H](CC(C)C)C(=O)N(C)[C@@H](CC(C)C)C(=O)N2CCC[C@H]2C(=O)N1C lists PAMPA 1.9 × 10^-6 cm/s. CC(C)C[C@@H]1NC(=O)[C@@H](C)N(C)C(=O)[C@H]2CCCN2C(=O)[C@H](Cc2ccccc2)NC(=O)[C@@H](CC(C)C)N(C)C(=O)[C@H]2CCCN2C(=O)C[C@H](Cc2ccccc2)NC1=O has PAMPA 0.56 × 10^-6 cm/s.

CC(C)C[C@@H]1NC(=O)[C@@H]2CCCN2C(=O)[C@H](CC(C)C)NC(=O)[C@@H](CC(C)C)N(C)C(=O)[C@@H](C)N(C)C(=O)[C@H]2CCCN2C(=O)[C@H](Cc2ccccc2)NC1=O is reported with PAMPA 2.8 × 10^-6 cm/s. The entry for CC(C)C[C@@H]1NC(=O)[C@H]2CCCN2C(=O)[C@@H](CC(C)C)NC(=O)[C@@H](CC(C)C)NC(=O)[C@H](C)NC(=O)[C@H]2CCCN2C(=O)[C@H](Cc2ccccc2)NC1=O lists PAMPA 0.17 × 10^-6 cm/s. Listed for CC(C)C[C@@H]1C(=O)N[C@@H](Cc2ccccc2)C(=O)N2CCC[C@H]2C(=O)N(C)[C@@H](C)C(=O)N[C@H](CC(C)C)C(=O)N(C)[C@@H](CC(C)C)C(=O)N2CCC[C@H]2C(=O)N1C: PAMPA 1 × 10^-6 cm/s. CC(C)C[C@@H]1NC(=O)[C@@H](C)NC(=O)[C@H](Cc2ccccc2)NC(=O)CN(Cc2ccccc2)C(=O)[C@H]2CCCN2C(=O)[C@H](CC(C)C)NC1=O has PAMPA 2.1 × 10^-6 cm/s. The entry for CC(C)C[C@@H]1NC(=O)[C@@H]2CCCN2C(=O)[C@@H](CC(C)C)N(C)C(=O)[C@@H](CC(C)C)NC(=O)C[C@H](Cc2ccccc2)NC(=O)[C@H]2CCCN2C(=O)[C@H](Cc2ccccc2)NC1=O lists PAMPA 2.3 × 10^-6 cm/s. For CC(C)C[C@H]1C(=O)N2CCC[C@H]2C(=O)N(C)[C@@H](CC(C)C)C(=O)N[C@@H](Cc2ccccc2)C(=O)N2CCC[C@H]2C(=O)N(C)[C@@H](C)C(=O)N(Cc2ccccc2)CC(=O)N1C the data give PAMPA 3.8 × 10^-6 cm/s.

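Lipid, pH, incubation time, direction and concentration are not recorded in the data file. Other peptides of the study may be missing here. Peptides that the database sets to -10, its floor, are left out.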

Source: CycPeptMPDB (Li et al. 2023), which took these values from Townsend et al. 2020, doi:10.26434/chemrxiv.13335941.v1.